These results are taken from patent publication US20100021885A1, “REAGENT SETS AND GENE SIGNATURES FOR NON-GENOTOXIC HEPATOCARCINOGENICITY” (priority 2006, published 2010).

Data set [1] relates to livers from treated male Sprague-Dawley rats. The note with it: rat, in vivo.
A further data set concerns liver of rats. To be noted: rat, in vivo; cited from earlier work.

As for `Cc1cc2c(s1)Nc1ccccc1N=C2N1CCN(C)CC1` [OLANZAPINE], in data set [1] (male), the “Day 1 (scalar product)” value is recorded as −0.58, the “Day 3 (scalar product)” value was −0.56, the “Day 5 (scalar product)” value is −0.54 and the “Max (maximum scalar product observed over the multiple time points)” value is given as −0.54.

`ClC(Cl)Cl` [chloroform, reference compound]: the “signature prediction for non-genotoxic hepatocarcinogenicity” value in data set [1] is listed as “positive”.

Regarding `C[C@]12C=CC(=O)C=C1CC[C@@H]1[C@@H]2[C@@H](O)C[C@@]2(C)[C@H]1CC[C@]2(O)C(=O)CO` [PREDNISOLONE], in the data set on liver of rats, the Class entry is recorded as “NGTC”.
